The chains behind the UniProt entries cited, without tags or fusion partners.
UniProt O95136, whole entry: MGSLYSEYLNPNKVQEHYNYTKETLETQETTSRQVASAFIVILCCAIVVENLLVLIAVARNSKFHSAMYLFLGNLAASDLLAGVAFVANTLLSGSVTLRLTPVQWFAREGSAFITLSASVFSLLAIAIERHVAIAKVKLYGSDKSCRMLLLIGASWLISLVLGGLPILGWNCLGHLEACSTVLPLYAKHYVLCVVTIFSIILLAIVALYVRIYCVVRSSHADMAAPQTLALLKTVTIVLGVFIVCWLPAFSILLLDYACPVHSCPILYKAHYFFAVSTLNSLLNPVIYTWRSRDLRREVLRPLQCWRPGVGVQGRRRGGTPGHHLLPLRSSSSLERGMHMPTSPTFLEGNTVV

In patent US20200369626A1 (Washington University, priority 2019, published 2020):

Target: S1PR2 (Homo sapiens, UniProt O95136)
Experiment: competitive [^32P]S1P binding assay on cell membranes, S1PR2
Settings: read-out: IC50 (binding potency toward S1PR2); [^32P]S1P competition, IC50 ± SD, Table 1 (2a-l, 4a-h)

IC50, > 1 µM:
COc1ccccc1NC(=O)Cn1c(=O)c2ccccc2n(CC(=O)c2ccccc2OC)c1=O [TZ62-020], COc1ccccc1NC(=O)Cn1c(=O)c2ccccc2n(Cc2ccc(F)cc2)c1=O [TZ62-014], COc1ccccc1NC(=O)Cn1c(=O)c2ccccc2n(CC(=O)c2ccc(F)cc2)c1=O [TZ62-016], COc1ccc(C(=O)Cn2c(=O)n(CC(=O)Nc3ccccc3OC)c(=O)c3ccccc32)cc1 [TZ62-019], COc1ccccc1NC(=O)Cn1c(=O)c2ccccc2n(CC(=O)Nc2cc(Cl)nc(Cl)c2)c1=O [TZ62-093]
